{"source": "paper PMC4145329", "about": "“Paper Synthesis, Cytotoxicity and Apoptosis Induction in Human Tumor Cells by Galaxamide and Its Analogues” (Marine Drugs, 2014)", "format_in_all_cases": "cell-based, human", "conditions_in_all_cases": "72 h, mean ± standard error, three independent experiments", "key": {"[1]": {"test_system": "HepG2 cells", "test": "MTT anti-proliferative assay, HepG2", "protocol": "(§1) All of the cells were incubated at 37 °C in a humidified atmosphere composed of 95% air and 5% CO2. The cell viability was determined by measuring the ability of cells to transform MTT (Genview, Houston, TX, USA) to a purple formazan dye. The cells were seeded in 96-well tissue culture plates at 2.5 × 10^3 cells/well for 24 h. The cells were then incubated with galaxamide and its analogues at different concentrations for 72 h. After incubation, 20 μL/well of MTT solution (5 mg/mL phosphate buffered saline) were added and incubated for 5 h. The medium was aspirated and replaced with 100 μL/well of DMSO to dissolve the formazan salt. The color intensity of the formazan solution, which reflects the cell growth condition, was measured at 570 nm using a microplate spectrophotometer (SpectroAma™ 250, Winooski, VT, USA)."}, "[2]": {"test_system": "MCF-7 cells", "test": "MTT anti-proliferative assay, MCF-7", "protocol": "as §1"}, "[3]": {"test_system": "U87 cells", "test": "MTT anti-proliferative assay, U87", "protocol": "as §1"}, "[4]": {"test_system": "SW480 cells", "test": "MTT anti-proliferative assay, SW480", "protocol": "as §1"}}}
{"substance": "Galaxamide", "values": [{"measurement": "Cytotoxicity IC50, HepG2", "setting": "[1]", "result": "4.63 ± 0.14", "unit": "µg/mL"}, {"measurement": "Cytotoxicity IC50, MCF-7", "setting": "[2]", "result": "14.09 ± 1.35", "unit": "µg/mL"}, {"measurement": "Cytotoxicity IC50, U87", "setting": "[3]", "result": "10.61 ± 0.24", "unit": "µg/mL"}, {"measurement": "Cytotoxicity IC50, SW480", "setting": "[4]", "result": 43.82, "unit": "µg/mL"}]}
